Source: PubChem (Broad Institute)
Yeast UUG start: modulators of start codon recognition fidelity in yeast; S. cerevisiae UUG-firefly luciferase reporter, luminescence/redox ratio; activity score, % at 18.7 µM; hit rate 0.13% among 350,000; AID 602363;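 active = replicate mean at a twofold rise or more, about +100% in these data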;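 note: firefly luciferase made from a UUG start codon reports start codon fidelity; reporter light over untreated wells divided by growth signal over untreated wells; some hits fall short of that in this replicate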
Rtt109 HAT inh: C. albicans Rtt109 histone acetyltransferase inhibition; inhibition, % at 34.9 µM; purified Rtt109/Vps75, ThioGlo CoA-SH fluorescence, 4 h; 330,000 tested, 0.16% active;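 active = inhibition of at least 50% in every replicate; inconclusive = best replicate reaches 50% inhibition but some replicates fall short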
C2C12 statin: suppression of simvastatin myotoxicity; C2C12 myotubes + simvastatin, ATP luminescence, 48 h; scaled: DMSO 0, geranylgeraniol control 100; rescue of ATP level, % at 7.49 µM; 330,000 tested, 0.78% active;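 active = mean ATP rescue above about 67%, or every replicate alone reaching that limit, limit read from the data, passing the limit was not always enough; inconclusive = no clear call, values can overlap the other calls; inactive = mean under the limit and some replicate under it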;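 also: myotubes were challenged with 10 µM simvastatin during compound exposure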
CDK5 p35 inh: CDK5/p35 (human) kinase inhibition | Q00535+Q15078 | Recombinant CDK5/p35, ADP-Glo luminescence, 60 min | inhibition, % at 10 µM | 330,000 tested, 0.01% active | AID 488839;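 active = highest replicate inhibition of at least 50% and at least 75% of replicates reaching 50%; inconclusive = only one of the two criteria met; inactive = both criteria failed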;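 also: plate controls were DMSO neutral control for no effect and GW8510 at 10 µM for full effect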
Cneo AK release: causes C. neoformans cell lysis; adenylate kinase release luminescence, 4 h; normalised: neutral wells 0, clomiphene wells 100; 360,000 tested, 0.2% active; lysis activity, % at 15 µM; AID 651654;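 active = mean lysis activity across replicates of at least 80%, whatever share of replicates individually reach that level; inactive = mean lysis activity below 80%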
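read-out = cell lysis signal | test system = log-phase Cryptococcus neoformans yeast cells | input = cells at 5 × 10^6 per mL | medium = fresh YPD growth medium | signal = luminescent adenylate kinase detection reagent | timing = 4 h at 37 °C static, read 1 h later | dosing = single dose | controls = Clomiphene as positive lysis control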
Active calls of the source: *; ? = inconclusive; nt = no result given. A selection: hits, their analogues and other compounds. The true share with any hit is near 1%.

Every second line gives: Yeast UUG start | Rtt109 HAT inh | C2C12 statin | CDK5 p35 inh | Cneo AK release
(1) c1ccc(Cn2nnnc2C(c2ccccn2)N2CCN(c3ccccc3)CC2)cc1 (configuration not stated)
    -7 | 6 | 11 | -1 | -20
(2) c1ccc(Cn2nnnc2C(c2ccccn2)N2CCOCC2)cc1 (configuration not stated)
    -1 | 63* | -18 | 1 | -3
(3) COc1ccc(C(=O)Nc2cc(OC)c(NC(=O)c3ccco3)cc2OC)cc1
    nt | 57* | nt | 1 | nt
(4) COc1ccc(Nc2ncnc3c2cnn3Cc2ccc(C)cc2)cc1
    -10 | 5 | 68* | 1 | 2
(5) CC(C)(C)c1[nH]nc2c1C(c1ccncc1)C(C#N)=C(N)O2 (configuration not stated)
    -8 | -8 | nt | -1 | 2
(6) CC(C)(C)c1[nH]nc2c1C(c1ccoc1)C(C#N)=C(N)O2 (configuration not stated)
    -19 | 4 | 92* | -1 | 6
(7) CC1CC(c2ccccc2)n2nc(N3C(=O)c4ccccc4C3=O)nc2N1 (configuration not stated)
    -29 | 0 | 101* | 1 | 7
(8) CCCc1cc(=O)[nH]c(SCC(=O)Nc2cccc3ccccc23)n1
    -17 | -1 | 51 | -2 | -1
(9) COCc1cc(=O)[nH]c(SCC(=O)Nc2ccccc2)n1
    -13 | -1 | 102* | -1 | -1
(10) Nc1nc(SCC(=O)Nc2ccc(Cl)cc2)[nH]c(=O)c1-c1ccccc1
    -4 | -11 | 122* | 0 | 1
(11) CCCc1cc(=O)[nH]c(SCC(=O)Nc2ccccc2C#N)n1
    -6 | -7 | 98* | -1 | 0
(12) C[C@@H]1CCCCO[C@@H](CN(C)S(=O)(=O)c2ccccc2)[C@@H](C)CN([C@@H](C)CO)C(=O)c2cc(NS(=O)(=O)c3ccc(Cl)cc3)ccc2O1
    8 | nt | nt | nt | -1
(13) COc1ccc(C(=O)c2cn[nH]c2-c2cc(Cl)ccc2O)cc1
    -5 | -11 | 144* | 1 | 1
(14) COc1ccc(C(=O)c2cn[nH]c2-c2cc(C)ccc2O)cc1
    -13 | 5 | 12 | 2 | -1
(15) O=C(CSc1ccc(Cl)cc1)N1CCN(c2c(Cl)cccc2[N+](=O)[O-])CC1
    -24 | -4 | 67* | 0 | 18

Next part.
Every second line gives: Yeast UUG start | Rtt109 HAT inh | C2C12 statin | CDK5 p35 inh | Cneo AK release
(16) COCCNC(=O)C(c1ccc(C)o1)N(Cc1ccc(OC)cc1)C(=O)Cn1nnc2ccccc21 (configuration not stated)
    -19 | 1 | 104* | -2 | 2
(17) Cc1cccc(-c2ccc([C@H]3[C@H](CO)N4CCCCN(Cc5cccnc5)C[C@@H]34)cc2)c1
    -9 | nt | nt | nt | 0
(18) C[C@@H]1CCCCO[C@@H](CN(C)C(=O)Cc2ccccc2)[C@H](C)CN([C@@H](C)CO)C(=O)c2cc(NS(=O)(=O)c3ccc(F)cc3)ccc2O1
    7 | nt | nt | nt | -13
(19) COCC(=O)N(C)C1(c2nnnn2CCOC(=O)Nc2cccc3ccccc23)CCCC1
    -17 | 9 | 98* | 1 | 3
(20) O=C1c2ccccc2C(=O)N1OCc1ccc(Cl)cc1
    -14 | -12 | 68* | 2 | -2
(21) O=C1Cc2ccccc2C(=O)N1OCc1ccc(Cl)cc1
    nt | 8 | -2 | 0 | nt
(22) COc1ccc(NC(=O)N[C@@H]2CC[C@@H](CCNC(=O)c3cc(Cl)cc(Cl)c3)O[C@@H]2CO)cc1
    -11 | nt | 5 | nt | -5
(23) Nc1nc(C2CC2)c(Sc2sc(N)nc2C2CC2)s1
    -25 | -13 | 69* | 2 | -2
(24) Cc1cc(C)nc(-n2nc(C)c3c(C(F)F)cc(C)nc32)n1
    -23 | -10 | 115* | -2 | -1
(25) C[C@@H]1CN([C@@H](C)CO)C(=O)Cc2cc(NS(=O)(=O)c3ccc(F)cc3)ccc2O[C@H]1CN(C)Cc1ccc(-c2ccccc2)cc1
    nt | nt | 80* | nt | nt
(26) C[C@@H]1CN([C@@H](C)CO)C(=O)Cc2cc(NS(=O)(=O)c3ccc(Cl)cc3)ccc2O[C@H]1CN(C)Cc1ccc(-c2ccccc2)cc1
    nt | nt | 69* | nt | nt
(27) C[C@H](CO)N1C[C@H](C)[C@H](CN(C)C)Oc2ccc(NS(=O)(=O)c3ccc(Cl)cc3)cc2CC1=O
    4 | nt | -2 | nt | -2
(28) CCOc1ccccc1C(=O)n1nc(C)cc1C
    -20 | 1 | 114* | -1 | 2
(29) COc1ccccc1C(=O)n1nc(C)cc1C
    -14 | -4 | -12 | 0 | -1
(30) C[C@@H]1CCCCO[C@@H](CN(C)C(=O)Nc2ccccc2)[C@H](C)CN([C@@H](C)CO)C(=O)c2cc(NC(=O)Nc3cccc4ccccc34)ccc2O1
    -14 | nt | nt | nt | -1

Single records (already shown). Values in the order: Yeast UUG start | Rtt109 HAT inh | C2C12 statin | CDK5 p35 inh | Cneo AK release
`Nc1nc(SCC(=O)Nc2ccc(Cl)cc2)[nH]c(=O)c1-c1ccccc1` is entered as -4 | -11 | 122* | 0 | 1
`Nc1nc(C2CC2)c(Sc2sc(N)nc2C2CC2)s1` is entered as -25 | -13 | 69* | 2 | -2
`CC(C)(C)c1[nH]nc2c1C(c1ccoc1)C(C#N)=C(N)O2` (configuration not stated) is entered as -19 | 4 | 92* | -1 | 6
`O=C1Cc2ccccc2C(=O)N1OCc1ccc(Cl)cc1` is entered as nt | 8 | -2 | 0 | nt
`Cc1cc(C)nc(-n2nc(C)c3c(C(F)F)cc(C)nc32)n1` is entered as -23 | -10 | 115* | -2 | -1

(listing goes on)
Every second line gives: Yeast UUG start | Rtt109 HAT inh | C2C12 statin | CDK5 p35 inh | Cneo AK release
(31) CCOC(=O)C1=C(C)N=C2SCCC(=O)N2C1c1sccc1C (configuration not stated)
    -12 | -6 | -4 | 0 | 4
(32) C=CCOC(=O)C1=C(C)N=C2SCCC(=O)N2C1c1cccs1 (configuration not stated)
    -22 | -5 | 110* | -1 | 24
(33) Cc1ccccc1NC(=O)CSC(N)=O
    -10 | ? | -5 | 2 | 2
(34) COc1ccccc1NC(=S)NC1CC2CCC1C2 (configuration not stated)
    -33 | -1 | 126* | -1 | 6
(35) O=C(COc1ccc(CO)cc1Cl)Nc1ccc(F)cc1
    -65 | 5 | 18 | 0 | -3
(36) COc1ccccc1NC(=O)COc1ccc(CO)cc1Cl
    -5 | 7 | 75* | 0 | -6
(37) COc1ccccc1NC(=O)CSC(N)=O
    nt | 135* | nt | 1 | nt
(38) CCC(=O)NC(=S)Nc1ccccc1OC
    -15 | 0 | 133* | 1 | 3
(39) CCCC(=O)NC(=S)Nc1ccccc1OC
    -13 | 26 | -10 | 4 | 3
(40) CCCNC(=O)[C@@H]1[C@@H](CO)[C@@H]2Cn3c(ccc(-c4ccc(F)cc4)c3=O)[C@@H]2N1CC1CC1
    nt | nt | -8 | nt | -4
(41) C[C@@H]1CCCCO[C@H](CN(C)C(=O)Nc2ccccc2)[C@H](C)CN([C@H](C)CO)C(=O)c2cc(NC(=O)c3ccccc3)ccc2O1
    9 | nt | nt | nt | 5
(42) C[C@H](CO)N1C[C@H](C)[C@@H](CN(C)C(=O)CN(C)C)Oc2cc(C3=CCCCC3)ccc2S1(=O)=O
    15 | nt | 8 | nt | -1
(43) CC(=O)N(C)C[C@H]1Oc2ncc(-c3cccnc3)cc2C(=O)N([C@H](C)CO)C[C@H]1C
    -9 | nt | -1 | nt | 1
(44) O=C(Nc1nc(=O)c2ccccc2s1)c1ccc(Cl)cc1
    -29 | -8 | 80* | 0 | -5
(45) CN(C)CCCNC(=O)C[C@@H]1CC[C@H]2[C@@H](COC[C@@H](O)CN2Cc2ccc(Cl)c(Cl)c2)O1
    nt | nt | -5 | nt | -6

(next part)
Every second line gives: Yeast UUG start | Rtt109 HAT inh | C2C12 statin | CDK5 p35 inh | Cneo AK release
(46) CC1(Cc2ccc(Cl)cc2)C(=O)Nc2ccc(-c3cccnc3)cc21 (configuration not stated)
    -14 | nt | 116* | nt | 0
(47) CSc1ccccc1NS(=O)(=O)c1ccc2c(c1)OCCO2
    -8 | -5 | 92* | 0 | -2
(48) COC(=O)c1ccc(C)c(NS(=O)(=O)c2ccc3c(c2)OCCO3)c1
    -10 | 22 | 92* | 0 | 1
(49) COC(=O)COc1ccc(S(=O)(=O)Nc2ccccc2SC)cc1
    -18 | 1 | 127* | 0 | -3
